These results are taken from patent publication US20260382623A1, “NOVEL COMPOUND FOR INHIBITING PROTEIN KINASES AND PHARMACEUTICAL COMPOSITION COMPRISING SAME” (published 2026).

One may read the GI50 as the concentration that inhibits growth by half.

Where only a bound is given, the exact number is not on record here.

For test [1], the system named is C4-2B cells. The test can be described thus: Cell growth inhibition, C4-2B (CCK-8). The note with it: read-out: Cell growth inhibition GI50, 72 hours.
In test [2] the test system is 22Rv1 cells. The test can be described thus: Cell growth inhibition, 22Rv1 (CCK-8). The following applies: read-out: Cell growth inhibition GI50, 22Rv1, 72 hours.
In test [3] the test system is HCI-H460. Put plainly: Cell growth inhibition, HCI-H460 (CCK-8). The note with it: read-out: Cell growth inhibition GI50, HCI-H460, 72 hours.
In test [4] the test system is MDA-MB-231. Put plainly: Cell growth inhibition, MDA-MB-231 (CCK-8). The note with it: read-out: Cell growth inhibition GI50, MDA-MB-231, 72 hours.
Test [5] concerns SKOV3. The test can be described thus: Cell growth inhibition, SKOV3 (CCK-8). The following applies: read-out: Cell growth inhibition GI50, SKOV3, 72 hours.
In test [6] the test system is SW620. The test can be described thus: Cell growth inhibition, SW620 (CCK-8). The following applies: read-out: Cell growth inhibition GI50, SW620, 72 hours.
Test [7] concerns SW480. The test can be described thus: Cell growth inhibition, SW480 (CCK-8). The following applies: read-out: Cell growth inhibition GI50, SW480, 72 hours.
The test system of test [8] is DLD-1. Put plainly: Cell growth inhibition, DLD-1 (CCK-8). The following applies: read-out: Cell growth inhibition GI50, DLD-1, 72 hours.
Test [9] relates to A172. The test can be described thus: Cell growth inhibition, A172 (CCK-8). The note with it: read-out: Cell growth inhibition GI50, A172, 72 hours.
Test [10] deals with AsPC-1. Put plainly: Cell growth inhibition, AsPC-1 (CCK-8). The note with it: read-out: Cell growth inhibition GI50, AsPC-1, 72 hours.
Test [11] deals with A549. The test can be described thus: Cell growth inhibition, A549 (CCK-8). The following applies: read-out: Cell growth inhibition GI50, A549, 72 hours.
Test [12] relates to HT-29. The test can be described thus: Cell growth inhibition, HT-29 (CCK-8). The note with it: read-out: Cell growth inhibition GI50, HT-29, 72 hours.
Test [13] concerns HCT-116. The test can be described thus: Cell growth inhibition, HCT-116 (CCK-8). The following applies: read-out: Cell growth inhibition GI50, HCT-116, 72 hours.
Test [14] concerns MIA-Paca-2. Put plainly: Cell growth inhibition, MIA-Paca-2 (CCK-8). The note with it: read-out: Cell growth inhibition GI50, MIA-Paca-2, 72 hours.

As to `COc1cc(C(=O)Nc2ccc(C)c(N3Cc4cnc(N)nc4C4(CC4)C3=O)c2)cc(C(F)(F)F)c1`, the concentration for 50% growth inhibition (GI50) in test [1] and in test [2] was below 5 µM each time.
`Cc1ccc(NC(=O)c2cccc(C(F)(F)F)c2)cc1N1Cc2cnc(N)nc2C2(CC2)C1=O`: the GI50 in [3], in test [1], in test [2], in [4], in [5] and in test [6] was below 5 µM each time. For the same compound, the GI50 in test [7] and in [8] was below 5 µM each time.
As to `COCCN(C)c1cc(C(=O)Nc2ccc(C)c(N3Cc4cnc(NC5CC5)nc4C4(CC4)C3=O)c2)cc(C(F)(F)F)c1`, the GI50 in test [1] is below 5 µM.
In the case of `Cc1ccc(NC(=O)c2cncc(C(F)(F)F)c2)cc1N1Cc2cnc(N[C@@H](C)CO)nc2C2(CC2)C1=O`, the GI50 in [9] was below 5 µM.
Consider `Cc1ccc(NC(=O)c2ccc(Cl)c(C(F)(F)F)c2)cc1N1Cc2cnc(N)nc2C2(CC2)C1=O`, for which the concentration for 50% growth inhibition (GI50) in test [1] and in test [2] was below 5 µM throughout.
Regarding `Cc1cc(Nc2ncc3c(n2)C2(CC2)C(=O)N(c2cc(NC(=O)c4cccc(C(F)(F)F)c4)ccc2C)C3)n(C)n1`, the GI50 in [1] was below 5 µM.
The same measure, in the same setting: the value for `Cc1ccc(NC(=O)c2cc(N3CCOCC3)cc(C(F)(F)F)c2)cc1N1Cc2cnc(N)nc2C2(CC2)C1=O` was below 5 µM.
Regarding `Cc1ccc(NC(=O)c2cncc(C(F)(F)F)c2)cc1N1Cc2cnc(NCCO)nc2C2(CC2)C1=O`, in test [9], the GI50 is below 5 µM.
Regarding `Cc1ccc(NC(=O)c2cc(N3CCNCC3)cc(C(F)(F)F)c2)cc1N1Cc2cnc(NC3CC3)nc2C2(CC2)C1=O`, in test [1], the GI50 was below 10 µM.
Turning to `Cc1ccc(NC(=O)c2cc(N(C)CCN(C)C)cc(C(F)(F)F)c2)cc1N1Cc2cnc(NC3CC3)nc2C2(CC2)C1=O`, the GI50 in [1] is below 10 µM.
For `Cc1ccc(NC(=O)c2cc(N3CCN(C)CC3)cc(C(F)(F)F)c2)cc1N1Cc2cnc(N)nc2C2(CC2)C1=O`, the GI50 in test [1] is below 10 µM.
On to `Cc1ccc(NC(=O)c2cc(N3CCOCC3)cc(C(F)(F)F)c2)cc1N1Cc2cnc(NC3CC3)nc2C2(CC2)C1=O`, for which the GI50 in test [1] was below 5 µM; in test [10], below 10 µM; in test [6], below 5 µM; in test [7], below 5 µM.
Regarding `Cc1ccc(NC(=O)c2cc(O)cc(C(F)(F)F)c2)cc1N1Cc2cnc(N)nc2C2(CC2)C1=O`, the GI50 in [1] was below 10 µM.
On the same count and under the same terms, then `Cc1ccc(NC(=O)c2ccc(C)c(C(F)(F)F)c2)cc1N1Cc2cnc(NC3CC3)nc2C2(CC2)C1=O`, with below 5 µM.
Take `Cc1ccc(NC(=O)c2cccc(C(F)(F)F)c2)cc1N1Cc2cnc(NCCO)nc2C2(CC2)C1=O`: the GI50 in test [11] is below 5 µM; in [12], below 10 µM; in test [9], below 5 µM.
For `COCCN(C)c1cc(C(=O)Nc2ccc(C)c(N3Cc4cnc(N)nc4C4(CC4)C3=O)c2)cc(C(F)(F)F)c1`, the GI50 in [1] is below 5 µM.
Consider `Cc1ccc(NC(=O)c2ccc(F)c(C(F)(F)F)c2)cc1N1Cc2cnc(N)nc2C2(CC2)C1=O`, for which the GI50 in test [1] and in test [2] was below 5 µM each time.
For `Cc1ccc(NC(=O)c2cc(N3CCN(C)CC3)cc(C(F)(F)F)c2)cc1N1Cc2cnc(NC3CC3)nc2C2(CC2)C1=O`, the GI50 in test [1] was below 5 µM.
Take `Cc1ccc(NC(=O)c2cccc(C(F)(F)F)c2)cc1N1Cc2cnc(NC3CC3)nc2C2(CC2)C1=O`: the GI50 in [1], in [4], in test [10], in [6], in test [7] and in [13] was below 5 µM in each case.
In the case of `Cc1ccc(NC(=O)c2cncc(C(F)(F)F)c2)cc1N1Cc2cnc(N)nc2C2(CC2)C1=O`, the GI50 in test [3] was below 5 µM; in test [1], below 5 µM; in [2], below 10 µM; in [4] it was below 5 µM; in test [5] it was below 5 µM; in [14], below 5 µM. Further, the GI50 in test [10], in test [7] and in [8] was below 5 µM throughout.
Turning to `Cc1cn(-c2cc(C(=O)Nc3ccc(C)c(N4Cc5cnc(N)nc5C5(CC5)C4=O)c3)cc(C(F)(F)F)c2)cn1`, in test [1], the GI50 is below 5 µM.
In the case of `Cc1ccc(NC(=O)c2cc(F)cc(F)c2)cc1N1Cc2cnc(N)nc2C2(CC2)C1=O`, the GI50 in test [1] is below 10 µM.
On the same count and under the same terms, then `Cc1ccc(NC(=O)c2cc(F)cc(C(F)(F)F)c2)cc1N1Cc2cnc(NC3CC3)nc2C2(CC2)C1=O`, with below 10 µM.
The same measure, in the same setting: the value for `Cc1ccc(NC(=O)c2cc(N3CCNCC3)cc(C(F)(F)F)c2)cc1N1Cc2cnc(N)nc2C2(CC2)C1=O` was below 10 µM.
With `Cc1ccc(NC(=O)c2cc(F)cc(C(F)(F)F)c2)cc1N1Cc2cnc(N)nc2C2(CC2)C1=O`, the GI50 in test [4], in [6], in test [7] and in test [13] was below 5 µM in each case.
